# In patent publication US5843900A (priority 1995, dated 1998):
# Chains of the proteins cited; added tags and fusions are not shown.
# UniProt P35372, whole entry, looked up: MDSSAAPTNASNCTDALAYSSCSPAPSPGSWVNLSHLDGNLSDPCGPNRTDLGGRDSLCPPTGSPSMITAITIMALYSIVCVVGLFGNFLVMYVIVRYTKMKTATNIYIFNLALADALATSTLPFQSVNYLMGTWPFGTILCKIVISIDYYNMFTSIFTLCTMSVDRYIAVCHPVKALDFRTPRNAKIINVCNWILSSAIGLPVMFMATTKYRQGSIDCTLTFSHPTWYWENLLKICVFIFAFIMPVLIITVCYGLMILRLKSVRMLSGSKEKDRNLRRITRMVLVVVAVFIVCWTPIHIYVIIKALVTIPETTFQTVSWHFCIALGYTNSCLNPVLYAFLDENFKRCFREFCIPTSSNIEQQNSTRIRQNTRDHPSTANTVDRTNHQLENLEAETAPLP
# UniProt O70526, whole entry, looked up: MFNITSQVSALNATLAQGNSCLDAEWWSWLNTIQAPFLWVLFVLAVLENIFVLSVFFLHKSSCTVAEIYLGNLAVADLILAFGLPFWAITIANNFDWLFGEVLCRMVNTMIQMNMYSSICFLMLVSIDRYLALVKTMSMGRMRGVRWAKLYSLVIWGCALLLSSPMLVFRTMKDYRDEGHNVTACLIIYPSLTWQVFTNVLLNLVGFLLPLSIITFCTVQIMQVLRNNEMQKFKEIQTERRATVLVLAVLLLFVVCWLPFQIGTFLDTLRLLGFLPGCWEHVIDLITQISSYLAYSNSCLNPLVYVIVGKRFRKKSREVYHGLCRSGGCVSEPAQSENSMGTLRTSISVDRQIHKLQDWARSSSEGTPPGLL
# Legend:
# human mu receptor = human mu receptor (Homo sapiens, UniProt P35372); test: Human Mu Receptor Binding (3H-DAMGO, human clone membranes); conditions: 3H-DAMGO 5nM, CHO-K1 clone hmu5 membranes
# B2 receptor = B2 receptor (Cavia porcellus, UniProt O70526); test: B2 receptor antagonist activity on guinea pig ileum (inhibition of myotropic activity of bradykinin, pA2); conditions: Schild pA2 against bradykinin; for BK2, pA2 (GPA): first part of Table I
SMILES,Mu Binding Human Clone (human mu receptor),"BK2, pA2 (GPI) (B2 receptor)","BK2, pA2 (GPA) (B2 receptor)"
CN1CC[C@]23c4c5ccc(OCCCCCC(=O)NCCCC[C@H](NC(=O)[C@H](N)CCCNC(=N)N)C(=O)N6CCC[C@H]6C(=O)N6C[C@H](O)C[C@H]6C(=O)NCC(=O)N[C@@H](Cc6cccs6)C(=O)N[C@@H](CO)C(=O)N6Cc7ccccc7C[C@@H]6C(=O)N(CC(=O)N[C@@H](CCCNC(=N)N)C(=O)O)C6CCCCC6)c4O[C@H]2[C@@H](O)CC[C@H]3[C@H]1C5,6.1,7.3,–
CN1CC[C@]23c4c5ccc(OCCCCCC(=O)N[C@H](CCCNC(=N)N)C(=O)N[C@@H](CCCNC(=N)N)C(=O)N6CCC[C@H]6C(=O)N6C[C@H](O)C[C@H]6C(=O)NCC(=O)N[C@@H](Cc6cccs6)C(=O)N[C@@H](CO)C(=O)N6Cc7ccccc7C[C@@H]6C(=O)N(CC(=O)N[C@@H](CCCNC(=N)N)C(=O)O)C6CCCCC6)c4O[C@H]2[C@@H](O)CC[C@H]3[C@H]1C5,–,–,8.5
CN1CC[C@]23c4c5ccc(OCCCCCC(=O)N[C@H](CCCNC(=N)N)C(=O)N[C@@H](CCCNC(=N)N)C(=O)N6CCC[C@H]6C(=O)N6C[C@H](O)C[C@H]6C(=O)NCC(=O)N[C@@H](Cc6cccs6)C(=O)N[C@@H](CO)C(=O)N[C@@H](C(=O)N6[C@H](C(=O)N[C@@H](CCCNC(=N)N)C(=O)O)C[C@@H]7CCCC[C@@H]76)C6Cc7ccccc7C6)c4O[C@H]2[C@@H](O)CC[C@H]3[C@H]1C5,–,–,8.1
CN1CC[C@]23c4c5ccc(OCCCCCCCCC(=O)N[C@H](CCCNC(=N)N)C(=O)N[C@@H](CCCNC(=N)N)C(=O)N6CCC[C@H]6C(=O)N6C[C@H](O)C[C@H]6C(=O)NCC(=O)N[C@@H](Cc6cccs6)C(=O)N[C@@H](CO)C(=O)N6Cc7ccccc7C[C@@H]6C(=O)N(CC(=O)N[C@@H](CCCNC(=N)N)C(=O)O)C6CCCCC6)c4O[C@H]2[C@@H](O)CC[C@H]3[C@H]1C5,–,–,8.2
CN1CC[C@]23c4c5ccc(OCCCCCCCCCCCC(=O)NCCCCCC(=O)N[C@H](CCCNC(=N)N)C(=O)N[C@@H](CCCNC(=N)N)C(=O)N6CCC[C@H]6C(=O)N6C[C@H](O)C[C@H]6C(=O)NCC(=O)N[C@@H](Cc6cccs6)C(=O)N[C@@H](CO)C(=O)N6Cc7ccccc7C[C@@H]6C(=O)N(CC(=O)N[C@@H](CCCNC(=N)N)C(=O)O)C6CCCCC6)c4O[C@H]2[C@@H](O)CC[C@H]3[C@H]1C5,7.9,–,8.4
CN1CC[C@]23c4c5ccc(OCCCCCCCCCCCC(=O)NCCCC[C@H](NC(=O)[C@H](Cc6cccs6)NC(=O)CNC(=O)[C@@H]6C[C@@H](O)CN6C(=O)[C@@H]6CCCN6C(=O)[C@H](CCCNC(=N)N)NC(=O)[C@H](N)CCCNC(=N)N)C(=O)N6Cc7ccccc7C[C@@H]6C(=O)N(CC(=O)N[C@@H](CCCNC(=N)N)C(=O)O)C6CCCCC6)c4O[C@H]2[C@@H](O)CC[C@H]3[C@H]1C5,7.6,7.2,–
CN1CC[C@]23c4c5ccc(OCCCCCCCCCCCC(=O)N[C@H](CCCNC(=N)N)C(=O)N[C@@H](CCCNC(=N)N)C(=O)N6CCC[C@H]6C(=O)N6C[C@H](O)C[C@H]6C(=O)NCC(=O)N[C@@H](Cc6cccs6)C(=O)N[C@@H](CO)C(=O)N6Cc7ccccc7C[C@@H]6C(=O)N(CC(=O)N[C@@H](CCCNC(=N)N)C(=O)O)C6CCCCC6)c4O[C@H]2[C@@H](O)C=C[C@H]3[C@H]1C5,–,–,7.8
CN1CC[C@]23c4c5ccc(OCCCCCCCCCCCC(=O)N[C@H](CCCNC(=N)N)C(=O)N[C@@H](CCCNC(=N)N)C(=O)N6CCC[C@H]6C(=O)N6C[C@H](O)C[C@H]6C(=O)NCC(=O)N[C@@H](Cc6cccs6)C(=O)N[C@@H](CO)C(=O)N[C@@H](C(=O)N6[C@H](C(=O)N[C@@H](CCCNC(=N)N)C(=O)O)C[C@@H]7CCCC[C@@H]76)C6Cc7ccccc7C6)c4O[C@H]2[C@@H](O)CC[C@H]3[C@H]1C5,–,–,8.3
CN1CC[C@]23c4c5ccc(OCc6ccc(C(=O)NCCC(=O)N[C@H](CCCNC(=N)N)C(=O)N[C@@H](CCCNC(=N)N)C(=O)N7CCC[C@H]7C(=O)N7C[C@H](O)C[C@H]7C(=O)NCC(=O)N[C@@H](Cc7cccs7)C(=O)N[C@@H](CO)C(=O)N7Cc8ccccc8C[C@@H]7C(=O)N(CC(=O)N[C@@H](CCCNC(=N)N)C(=O)O)C7CCCCC7)cc6)c4O[C@H]2[C@@H](O)C=C[C@H]3[C@H]1C5,–,–,7.9
CN1CC[C@]23c4c5ccc(OCc6cccc(C(=O)NCCC(=O)N[C@H](CCCNC(=N)N)C(=O)N[C@@H](CCCNC(=N)N)C(=O)N7CCC[C@H]7C(=O)N7C[C@H](O)C[C@H]7C(=O)NCC(=O)N[C@@H](Cc7cccs7)C(=O)N[C@@H](CO)C(=O)N7Cc8ccccc8C[C@@H]7C(=O)N(CC(=O)N[C@@H](CCCNC(=N)N)C(=O)O)C7CCCCC7)c6)c4O[C@H]2[C@@H](O)C=C[C@H]3[C@H]1C5,6.1,–,8.5
CN1CC[C@]23c4c5ccc(OCCCCCCCCCCCC(=O)N[C@H](CCCNC(=N)N)C(=O)N[C@@H](CCCNC(=N)N)C(=O)N6CCC[C@H]6C(=O)N6C[C@H](O)C[C@H]6C(=O)NCC(=O)N[C@@H](Cc6cccs6)C(=O)N[C@@H](CO)C(=O)N6Cc7ccccc7C[C@@H]6C(=O)N(CC(=O)N[C@@H](CCCNC(=N)N)C(=O)O)C6CCCCC6)c4O[C@H]2[C@@H](O)CC[C@H]3[C@H]1C5 [CP 695],–,–,8.3
CN1CC[C@]23c4c5ccc(OCCCCCCCCCCCC(=O)NCCCC[C@H](NC(=O)[C@H](N)CCCNC(=N)N)C(=O)N6CCC[C@H]6C(=O)N6C[C@H](O)C[C@H]6C(=O)NCC(=O)N[C@@H](Cc6cccs6)C(=O)N[C@@H](CO)C(=O)N6Cc7ccccc7C[C@@H]6C(=O)N(CC(=O)N[C@@H](CCCNC(=N)N)C(=O)O)C6CCCCC6)c4O[C@H]2[C@@H](O)CC[C@H]3[C@H]1C5 [CP 723],7.6,7.3,–
CN1CC[C@]23c4c5ccc(OCCCCCCCCCCCC(=O)NCCCC[C@H](NC(=O)CNC(=O)[C@@H]6C[C@@H](O)CN6C(=O)[C@@H]6CCCN6C(=O)[C@H](CCCNC(=N)N)NC(=O)[C@H](N)CCCNC(=N)N)C(=O)N[C@@H](CO)C(=O)N6Cc7ccccc7C[C@@H]6C(=O)N(CC(=O)N[C@@H](CCCNC(=N)N)C(=O)O)C6CCCCC6)c4O[C@H]2[C@@H](O)CC[C@H]3[C@H]1C5 [CP 831],–,7.2,–
CN1CC[C@]23c4c5ccc(OCc6ccc(C(=O)NCCC(=O)Nc7ccc(CC(=O)N[C@H](CCCNC(=N)N)C(=O)N[C@@H](CCCNC(=N)N)C(=O)N8CCC[C@H]8C(=O)N8C[C@H](O)C[C@H]8C(=O)NCC(=O)N[C@@H](Cc8cccs8)C(=O)N[C@@H](CO)C(=O)N8Cc9ccccc9C[C@@H]8C(=O)N(CC(=O)N[C@@H](CCCNC(=N)N)C(=O)O)C8CCCCC8)cc7)cc6)c4O[C@H]2[C@@H](O)C=C[C@H]3[C@H]1C5 [CP 836],6.1,–,7.5
CN1CC[C@]23c4c5ccc(OCCCCCCCCCCCC(=O)NCCCC[C@H](NC(=O)[C@@H]6CCCN6C(=O)[C@H](CCCNC(=N)N)NC(=O)[C@H](N)CCCNC(=N)N)C(=O)NCC(=O)N[C@@H](Cc6cccs6)C(=O)N[C@@H](CO)C(=O)N6Cc7ccccc7C[C@@H]6C(=O)N(CC(=O)N[C@@H](CCCNC(=N)N)C(=O)O)C6CCCCC6)c4O[C@H]2[C@@H](O)CC[C@H]3[C@H]1C5 [CP 841],7.9,< 6,–
CN1CC[C@]23c4c5ccc(OCCCCCCCCCCCCCCC(=O)N[C@H](CCCNC(=N)N)C(=O)N[C@@H](CCCNC(=N)N)C(=O)N6CCC[C@H]6C(=O)N6C[C@H](O)C[C@H]6C(=O)NCC(=O)N[C@@H](Cc6cccs6)C(=O)N[C@@H](CO)C(=O)N6Cc7ccccc7C[C@@H]6C(=O)N(CC(=O)N[C@@H](CCCNC(=N)N)C(=O)O)C6CCCCC6)c4O[C@H]2[C@@H](O)CC[C@H]3[C@H]1C5 [CP 844],–,–,7.5
CN1CC[C@]23c4c5ccc(OCCCCCCCCCCCC(=O)NCCCC[C@H](NC(=O)[C@H](CCCNC(=N)N)NC(=O)[C@H](N)CCCNC(=N)N)C(=O)N6C[C@H](O)C[C@H]6C(=O)NCC(=O)N[C@@H](Cc6cccs6)C(=O)N[C@@H](CO)C(=O)N6Cc7ccccc7C[C@@H]6C(=O)N(CC(=O)N[C@@H](CCCNC(=N)N)C(=O)O)C6CCCCC6)c4O[C@H]2[C@@H](O)CC[C@H]3[C@H]1C5 [CP 851],8.1,2.6,–
CN1CC[C@]23c4c5ccc(OCCCCCCCCCCCC(=O)NCCCC[C@H](NC(=O)[C@@H]6C[C@@H](O)CN6C(=O)[C@@H]6CCCN6C(=O)[C@H](CCCNC(=N)N)NC(=O)[C@H](N)CCCNC(=N)N)C(=O)N[C@@H](Cc6cccs6)C(=O)N[C@@H](CO)C(=O)N6Cc7ccccc7C[C@@H]6C(=O)N(CC(=O)N[C@@H](CCCNC(=N)N)C(=O)O)C6CCCCC6)c4O[C@H]2[C@@H](O)CC[C@H]3[C@H]1C5 [CP 853],7.8,< 6,–
CN1CC[C@]23c4c5ccc(OCc6cccc(C(=O)NCCC(=O)Nc7ccc(CC(=O)N[C@H](CCCNC(=N)N)C(=O)N[C@@H](CCCNC(=N)N)C(=O)N8CCC[C@H]8C(=O)N8C[C@H](O)C[C@H]8C(=O)NCC(=O)N[C@@H](Cc8cccs8)C(=O)N[C@@H](CO)C(=O)N8Cc9ccccc9C[C@@H]8C(=O)N(CC(=O)N[C@@H](CCCNC(=N)N)C(=O)O)C8CCCCC8)cc7)c6)c4O[C@H]2[C@@H](O)C=C[C@H]3[C@H]1C5 [CP 862],6.3,–,8.4
CN1CC[C@]23c4c5ccc(O)c4O[C@H]2[C@@H](OCCCCCCCCCCCC(=O)N[C@H](CCCNC(=N)N)C(=O)N[C@@H](CCCNC(=N)N)C(=O)N2CCC[C@H]2C(=O)N2C[C@H](O)C[C@H]2C(=O)NCC(=O)N[C@@H](Cc2cccs2)C(=O)N[C@@H](CO)C(=O)N2Cc4ccccc4C[C@@H]2C(=O)N(CC(=O)N[C@@H](CCCNC(=N)N)C(=O)O)C2CCCCC2)CC[C@H]3[C@H]1C5 [CP 896],8.3,–,8.7
CN1CC[C@]23c4c5ccc(O)c4O[C@H]2[C@@H](OCCCCCC(=O)N[C@H](CCCNC(=N)N)C(=O)N[C@@H](CCCNC(=N)N)C(=O)N2CCC[C@H]2C(=O)N2C[C@H](O)C[C@H]2C(=O)NCC(=O)N[C@@H](Cc2cccs2)C(=O)N[C@@H](CO)C(=O)N2Cc4ccccc4C[C@@H]2C(=O)N(CC(=O)N[C@@H](CCCNC(=N)N)C(=O)O)C2CCCCC2)CC[C@H]3[C@H]1C5 [CP 900],8.6,–,8.0
